Reference: PMC4356558, “Prediction of Chemical Respiratory Sensitizers Using GARD, a Novel In Vitro Assay Based on a Genomic Biomarker Signature” (PLoS ONE, 2015)

What was measured:
[1] = system: GRPS genomic biomarker signature (389 transcripts) in MUTZ-3 cells; assay: GARD assay with GARD Respiratory Prediction Signature (GRPS), SVM classification of respiratory sensitizers; settings: replicate stimulation 2; 24 h at GARD input concentration; independent test dataset; > 0 = respiratory sensitizer
[2] = system: GPS genomic biomarker signature (200 genes) in MUTZ-3 cells; assay: GARD assay for skin sensitizers (GARD Prediction Signature, GPS)

OCC=Cc1ccccc1 [Cinnamyl alcohol]
SVM decision value 2 [1]: −1.44

NCCN [Ethylenediamine]
Prediction in the GARD assay (skin sensitization) [2]: accurately predicted as skin sensitizers
